Measured values reported in publication PMC7799360, “Reprogramming immunosuppressive myeloid cells facilitates immunotherapy for colorectal cancer” (EMBO Molecular Medicine, 2020).
pIC50: −log10 of the molar value.

Target: T1, ADORA2B (Homo sapiens, UniProt P29275)
T1 sequence (P29275 1-332): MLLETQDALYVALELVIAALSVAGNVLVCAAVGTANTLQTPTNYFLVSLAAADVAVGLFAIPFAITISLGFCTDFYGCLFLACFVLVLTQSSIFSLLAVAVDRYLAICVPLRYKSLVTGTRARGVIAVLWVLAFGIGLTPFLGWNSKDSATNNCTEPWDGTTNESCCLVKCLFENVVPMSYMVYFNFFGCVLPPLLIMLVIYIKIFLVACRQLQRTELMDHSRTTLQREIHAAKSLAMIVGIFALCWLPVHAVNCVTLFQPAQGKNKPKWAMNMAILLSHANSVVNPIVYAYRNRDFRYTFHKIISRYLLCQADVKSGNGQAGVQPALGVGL
Assay: LANCE Ultra cAMP assay
Settings: read-out: IC50 (known antagonists, TP-16)

- pIC50: 6.00
Structure (SMILES): CCCn1c(=O)c2[nH]c(-c3ccc(OCC(=O)Nc4ccc(C#N)cc4)cc3)nc2n(CCC)c1=O [reference compound]
